The record followed here is PubChem BioAssay (NCI).

Experiment [1] is described as follows: NCI Yeast Anticancer Drug Screen. Data for the rad50 strain (AID 155).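 Further: 0% = growth of vehicle-only cultures of the same strain.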 The conditions noted are these: S. cerevisiae rad50 strain growth inhibition, stronger effect = higher value.
Experiment [2] can be described thus: NCI Yeast Anticancer Drug Screen. Data for the mec2-1 strain (AID 157). The settings on record: S. cerevisiae mec2-1 strain, stronger effect = higher value.
Experiment [3] in a line: NCI Yeast Anticancer Drug Screen. Data for the sgs1 mgt1 strain (AID 161).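 Further: 0% = growth of cultures given vehicle only.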 The conditions noted are these: S. cerevisiae sgs1 mgt1 strain, stronger effect = higher value.
Experiment [4] in a line: NCI Yeast Anticancer Drug Screen. Data for the cln2 rad14 strain (AID 165).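 Further: 0% = growth equal to vehicle treated cultures.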 The settings on record: S. cerevisiae cln2 rad14 strain, stronger effect = higher value.
Experiment [5] can be described thus: NCI Yeast Anticancer Drug Screen. Data for the bub3 strain (AID 167). The conditions noted are these: S. cerevisiae bub3 mutant strain, stronger effect = higher value.
Experiment [6] in a line: NCI Yeast Anticancer Drug Screen. Data for the mlh1 rad18 strain (AID 175). The settings on record: S. cerevisiae mlh1 rad18 strain growth inhibition, stronger effect = higher value.
The mark [7] stands for this setting: at 5.0 µM (retest, dose inferred, filed as 0.5).
[8] abbreviates: at 50.0 µM (retest, dose inferred, filed as 5.0).

The list shows a part of the results, in another mix than the full data. Some structures have more than one record in an assay (separate samples or runs), and their calls can disagree. Calls of active or inactive are those of the source. No stated cut-off is given here; in the data, active means growth inhibition above about 70%; inactive means the rest.

In the case of `CC(=O)n1c(=O)n(C2CCN(CCCC(=O)c3ccc(F)cc3)CC2)c2ccccc21`, the growth inhibition in experiment [1] (setting [7]) is inactive: 9%; in experiment [1] (setting [8]), inactive: 19%; in experiment [1] (at 50.0 µM), inactive: 68.1%; in experiment [2] (setting [7]), inactive: 4%; in experiment [2] (setting [8]), inactive: 23%; in experiment [2] (at 50.0 µM), inactive: 25.6%. Besides, the growth inhibition was inactive: 7% in experiment [3] (setting [7]); inactive: 48% in experiment [3] (setting [8]); active: 73.2% in experiment [3] (at 50.0 µM); inactive: 6% in experiment [4] (setting [7]); active: 78% in experiment [4] (setting [8]); inactive: 57.5% in experiment [4] (at 50.0 µM). Besides, the growth inhibition in experiment [5] (setting [7]) is inactive: 8%; in experiment [5] (setting [8]), inactive: 44%; in experiment [5] (at 50.0 µM), inactive: 67.7%; in experiment [6] (setting [7]) it was inactive: 0%; in experiment [6] (setting [8]), inactive: 50%; in experiment [6] (at 50.0 µM) it was active: 72.1%.

As to `Cc1[nH]c(=S)[nH]c(=O)c1CN(CCCl)CCCl`, the growth inhibition in experiment [1] (setting [7]) was inactive: -1%; in experiment [1] (setting [8]), inactive: -2%; in experiment [1] (at 50.0 µM), inactive: 13%; in experiment [2] (setting [7]), inactive: -1%; in experiment [2] (setting [8]) it was inactive: -3%; in experiment [2] (at 50.0 µM), inactive: -6.5%. Besides, the growth inhibition is inactive: -6% in experiment [3] (setting [7]); inactive: -4% in experiment [3] (setting [8]); inactive: 21.3% in experiment [3] (at 50.0 µM); inactive: -4% in experiment [4] (setting [7]); inactive: 2% in experiment [4] (setting [8]); inactive: -49.5% in experiment [4] (at 50.0 µM). The growth inhibition in experiment [5] (setting [7]) is inactive: -1%; in experiment [5] (setting [8]) it was inactive: -4%; in experiment [5] (at 50.0 µM) it was inactive: 43.5%; in experiment [6] (setting [7]) it was inactive: 0%; in experiment [6] (setting [8]), inactive: -4%; in experiment [6] (at 50.0 µM) it was inactive: 3.5%.

Turning to `O=Cc1cc(N(CCCl)CCCl)ccc1O`, the growth inhibition is inactive: 4% in experiment [1] (setting [7]); inactive: 30% in experiment [1] (setting [8]); inactive: 32.2% in experiment [1] (at 50.0 µM); inactive: -3% in experiment [2] (setting [7]); inactive: 18% in experiment [2] (setting [8]); inactive: 7.8% in experiment [2] (at 50.0 µM). Also, the growth inhibition in experiment [3] (setting [7]) is inactive: 7%; in experiment [3] (setting [8]) it was inactive: 33%; in experiment [3] (at 50.0 µM) it was inactive: 9.6%; in experiment [4] (setting [7]), inactive: -8%; in experiment [4] (setting [8]) it was inactive: 14%; in experiment [4] (at 50.0 µM), inactive: 22.9%. Also, the growth inhibition in experiment [5] (setting [7]) was inactive: -5%; in experiment [5] (setting [8]), inactive: -1%; in experiment [5] (at 50.0 µM), inactive: 12.5%; in experiment [6] (setting [7]), inactive: 6%; in experiment [6] (setting [8]) it was inactive: 43%; in experiment [6] (at 50.0 µM), inactive: 62.8%.

Consider `O=S(=O)(CN(CCBr)CCBr)c1ccc(Cl)cc1`, for which the growth inhibition in experiment [1] (setting [7]) was active: 89%; in experiment [1] (setting [8]) it was active: 99%; in experiment [1] (at 50.0 µM) it was active: 87.3%; in experiment [2] (setting [7]) it was inactive: 27%; in experiment [2] (setting [8]), active: 99%; in experiment [2] (at 50.0 µM) it was active: 91.5%. In addition, the growth inhibition was inactive: 40% in experiment [3] (setting [7]); active: 99% in experiment [3] (setting [8]); active: 87.2% in experiment [3] (at 50.0 µM); inactive: 47% in experiment [4] (setting [7]); active: 98% in experiment [4] (setting [8]); active: 87.7% in experiment [4] (at 50.0 µM). In addition, the growth inhibition in experiment [5] (setting [7]) was inactive: 32%; in experiment [5] (setting [8]), active: 99%; in experiment [5] (at 50.0 µM), active: 82.5%; in experiment [6] (setting [7]), active: 81%; in experiment [6] (setting [8]), active: 98%; in experiment [6] (at 50.0 µM), active: 92.5%.

Take `COc1ccc([N+](=O)[O-])c(C[N+](C)(CCCl)CCCl)c1`: the growth inhibition in experiment [1] (at 1.2 µM) is inactive: -20%; in experiment [1] (at 3.7 µM), inactive: -13%; in experiment [1] (setting [7]), inactive: 15%; in experiment [1] (at 11.0 µM), inactive: 8%; in experiment [1] (at 33.0 µM), active: 73%; in experiment [1] (setting [8]), inactive: 62%. Moreover, the growth inhibition in experiment [1] (at 50.0 µM) was active: 73.6%; in experiment [1] (at 100.0 µM), active: 92%; in experiment [2] (at 1.2 µM), inactive: -7%; in experiment [2] (at 3.7 µM), inactive: 5%; in experiment [2] (setting [7]) it was inactive: -14%; in experiment [2] (at 11.0 µM) it was inactive: 4%. The growth inhibition in experiment [2] (at 33.0 µM) was inactive: 22%; in experiment [2] (setting [8]) it was inactive: 19%; in experiment [2] (at 50.0 µM), inactive: 21.9%; in experiment [2] (at 100.0 µM), active: 78%; in experiment [3] (setting [7]), inactive: -1%; in experiment [3] (setting [8]) it was inactive: 10%. Further, the growth inhibition in experiment [3] (at 50.0 µM) is inactive: 31.6%; in experiment [4] (setting [7]), inactive: -3%; in experiment [4] (setting [8]) it was inactive: 47%; in experiment [4] (at 50.0 µM), inactive: 38.9%; in experiment [5] (at 1.2 µM), inactive: -33%; in experiment [5] (at 3.7 µM), inactive: -47%. Besides, the growth inhibition is inactive: -5% in experiment [5] (setting [7]); inactive: -35% in experiment [5] (at 11.0 µM); inactive: -37% in experiment [5] (at 33.0 µM); inactive: -8% in experiment [5] (setting [8]); inactive: -3.6% in experiment [5] (at 50.0 µM); inactive: -6% in experiment [5] (at 100.0 µM). In addition, the growth inhibition in experiment [6] (setting [7]) is inactive: 14%; in experiment [6] (setting [8]), active: 71%; in experiment [6] (at 50.0 µM) it was inactive: 67.7%.

For `Cn1cnc([N+](=O)[O-])c1C[N+](C)(CCCl)CCCl`, the growth inhibition in experiment [1] (at 1.2 µM) is inactive: -10%; in experiment [1] (at 3.7 µM), inactive: 18%; in experiment [1] (setting [7]) it was inactive: 21%; in experiment [1] (at 11.0 µM) it was inactive: 56%; in experiment [1] (at 33.0 µM) it was active: 85%; in experiment [1] (setting [8]) it was active: 82%. Further, the growth inhibition in experiment [1] (at 50.0 µM) was active: 76.8%; in experiment [1] (at 100.0 µM) it was active: 92%; in experiment [2] (at 1.2 µM), inactive: -25%; in experiment [2] (at 3.7 µM), inactive: -5%; in experiment [2] (setting [7]), inactive: 3%; in experiment [2] (at 11.0 µM), inactive: 13%. Further, the growth inhibition in experiment [2] (at 33.0 µM) is inactive: 63%; in experiment [2] (setting [8]), active: 79%; in experiment [2] (at 50.0 µM), active: 70.8%; in experiment [2] (at 100.0 µM) it was active: 86%; in experiment [3] (setting [7]), inactive: 44%; in experiment [3] (setting [8]), active: 71%. Moreover, the growth inhibition in experiment [3] (at 50.0 µM) is active: 70.2%; in experiment [4] (setting [7]), inactive: 8%; in experiment [4] (setting [8]), active: 77%; in experiment [4] (at 50.0 µM), inactive: 60.4%; in experiment [5] (at 1.2 µM), inactive: -29%; in experiment [5] (at 3.7 µM), inactive: -28%. Also, the growth inhibition in experiment [5] (setting [7]) was inactive: 3%; in experiment [5] (at 11.0 µM), inactive: -19%; in experiment [5] (at 33.0 µM), inactive: 11%; in experiment [5] (setting [8]), inactive: 56%; in experiment [5] (at 50.0 µM) it was inactive: 7.55%; in experiment [5] (at 100.0 µM) it was inactive: 61%. In addition, the growth inhibition in experiment [6] (setting [7]) was inactive: 53%; in experiment [6] (setting [8]), active: 92%; in experiment [6] (at 50.0 µM) it was active: 77.5%.

Regarding `CC(=O)N(c1ccccc1)C1CCNCC1`, the growth inhibition in experiment [1] (at 50.0 µM) was inactive: -9.55%; in experiment [2] (at 50.0 µM) it was inactive: -17.4%; in experiment [3] (at 50.0 µM), inactive: 7.4%; in experiment [4] (at 50.0 µM) it was inactive: 8.05%; in experiment [5] (at 50.0 µM), inactive: -7.6%; in experiment [6] (at 50.0 µM), inactive: -11.4%.

In the case of `ClCCN(CCCl)c1ccc(Cl)cc1`, the growth inhibition in experiment [1] (at 50.0 µM) was inactive: 2.6%; in experiment [2] (at 50.0 µM) it was inactive: -12.4%; in experiment [3] (at 50.0 µM) it was inactive: -0.15%; in experiment [4] (at 50.0 µM) it was inactive: 2.2%; in experiment [5] (at 50.0 µM) it was inactive: 5.25%; in experiment [6] (at 50.0 µM), inactive: 10.8%.
